Amino acid sequences for entries named in this document (tags omitted).
ATP-dependent Clp protease proteolytic subunit (Bacillus subtilis (strain 168)), P80244, UniProt P80244, whole entry, looked up: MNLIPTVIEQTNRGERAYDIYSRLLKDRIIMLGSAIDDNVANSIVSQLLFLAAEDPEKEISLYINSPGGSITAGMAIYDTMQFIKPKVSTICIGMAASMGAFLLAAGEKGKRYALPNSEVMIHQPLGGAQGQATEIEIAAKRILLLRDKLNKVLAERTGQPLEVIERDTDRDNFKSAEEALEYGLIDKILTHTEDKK

# From PubChem BioAssay
# rTrxR1 inhibitor – rat TrxR1 inhibition. Potency, µM (highest dose often 114 µM), for the others: at the highest dose activity change, negative = inhibition, usual class: inhibitors. recombinant rTrxR1, NADPH fluorescence consumption, selenite substrate. actives 1% (n = 390,000). O89049; also: potency is read from the fitted curve at half-maximal effect; % is scaled to controls: 0 for no effect and ±100 for the full control effect; nearly all actives have a fitted effect of over 65% in size
#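 Rat TrxR1 (90 nM in the dispensed reagent) was pre-reduced with 400 uM NADPH for 5 min at room temperature, then incubated with compound for 15 min. After 400 uM selenite was added, NADPH fluorescence (Ex 340/Em 450 nm) was followed for 8 min.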
# TrxR1 substrate – substrates of rat thioredoxin reductase 1. purified TrxR1 substrate turnover, NADPH consumption readout. actives 0.01% (n = 390,000). Potency, µM (top dose mostly 114 µM), for the others: at the top dose activity change, negative = substrate turnover; also: potency is read from the fitted curve at half-maximal effect; % is scaled to controls: 0 for no effect and ±100 for the full control effect; nearly all actives have a fitted effect of over 50% in size
#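 Rat TrxR1, dispensed at 90 nM, was prereduced with 400 uM NADPH (final) for 5 min at ~22 deg C, then incubated with compound 15 min before 400 uM selenite. A first-read NADPH fluorescence drop versus no-compound background flagged substrates.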
# miR-21 reporter – miR-21 reporter, rising signal | HeLa miR-21 FLuc reporter, luciferase, 48 h | Potency, µM (top dose mostly 38.3 µM), inactives show at the top dose reporter change, positive = more light | 340,000 tested, under 10 active | AID 2288; active = well fitted rising curve with a large enough effect; inconclusive = small, poorly fitted or top-dose-only effect; inactive = no such curve, though single readings can be large or run the other way;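 further: % of control where 0% means no effect; miR-21 action dims this reporter so a rising signal means less miR-21 action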
#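 Using DMEM plus 10% FBS, HeLa miR-21-FLuc cells are incubated with test compounds (final up to about 40uM) for 48 hours; firefly luciferase signal is then imaged following reagent-mediated lysis.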
# Apoferritin bind – binds horse apoferritin like a general anesthetic; P02791; apoferritin/1-aminoanthracene competitive binding, fluorescence; Potency, µM (top dose mostly 77.5 µM), for the others: at the highest dose activity change, negative = displacement, hits mostly inhibitors; actives 0.074% (n = 350,000); also: potency is read from the fitted curve at half-maximal effect; % is scaled to controls: 0 for no effect and ±100 for the full control effect; nearly all actives have a fitted effect of over 20% in size
#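 Probe: 1-aminoanthracene (50% saturated, PBS). Protein: horse-spleen apoferritin, 10 uM. Incubation: 10 min, room temperature. Detection: 380 nm excitation, 535 nm emission. Analysis: normalized response, four-parameter Hill.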
# ClpP mod – qHTS Assay for Activators of ClpP | purified B. subtilis ClpP, FRET peptide cleavage, 20 min | ATP-dependent Clp protease proteolytic subunit (Bacillus subtilis (strain 168)), P80244 | Potency, µM (series often up to 57.5 µM), for the others: top-dose activity change, negative = active | actives 1.9% (n = 340,000); active = well fitted falling curve with a large enough effect; inconclusive = small, poorly fitted or top-dose-only effect; inactive = no such curve, though single readings can be large or run the other way; also: potency is read from the fitted curve at half-maximal effect; the source files actives as falling curves though it sought activators and does not explain the sign; nearly all actives have a fitted effect of over 65% in size
#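 Buffer: 100 mM Tris/HCl pH8, 100 mM KCl, 0.05% low protease BSA, 2.5% glycerol, 0.01% Tween-20. ClpP 10 microg/mL final; 20 min RT; delta FRET normalized to ADEP and DMSO controls.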
# Numbers without * were called inactive; u = inconclusive; x = no result; [ ] = remark or other dose. Compounds with a hit are over-represented: about 2.5% of the library has one in this group of screens. Unless noted, calls follow the shape of the dose curve; as a rule, active = well fitted curve in the direction sought with a large enough effect; inconclusive = small, poorly fitted or top-dose-only effect, or another doubt; inactive = no such curve, though single readings can be large; an effect the other way counts as inactive or inconclusive.
entry	SMILES	rTrxR1 inhibitor	TrxR1 substrate	miR-21 reporter
1	CCCCn1cc(S(=O)(=O)c2ccc(C)c(C)c2)c(=O)c2cc(F)c(N(CC)CC)cc21	18.3%	33.3%	u
2	O/N=C1\CCC\C1=C/c1ccco1	u	4.4%	-10.1%
3	O=C1C(=Cc2ccco2)CCC1=Cc1ccco1	2.82µM*	4.4%[57.1 µM]	x
4	O=C1N=C(N2CCOCC2)SC1=Cc1ccco1	u	-10.4%	x
5	O=C1C(=Cc2ccco2)CCCC1=Cc1ccco1	44.7µM*	u	x
6	O=C(CSc1nc2ccccc2n1Cc1c(F)cccc1Cl)N1CCN(c2ccc(F)cc2)CC1	21.5%	3.8%	0.3%
7	CC(C)c1nnc(NC(=O)CCS(=O)(=O)c2nc(-c3cccs3)cc(C(F)(F)F)n2)s1	35.5µM*	14.5%	u
8	COc1ccc(NC(=O)CCS(=O)(=O)c2nc(-c3cccs3)cc(C(F)(F)F)n2)cc1	12.6µM*	12.6%[2.29 µM]	u
9	O=C(CCS(=O)(=O)c1nc(-c2cccs2)cc(C(F)(F)F)n1)Nc1ccc(F)c(Cl)c1	u	17.6%[2.29 µM]	u
10	O=C(CCS(=O)(=O)c1nc(-c2cccs2)cc(C(F)(F)F)n1)Nc1ccc(OC(F)(F)F)cc1	-3.0%	6.3%	u
11	Cc1cc(C)c2c(=O)cc(C(=O)Nc3sc4c(c3C#N)CCCC4)oc2c1	12.6%	6.3%	-1.3%
12	COc1cc(CN(C(=O)COc2ccccc2Cl)c2ccccn2)cc(OC)c1OC	16.4%	-3.4%	-7.1%

entry	Apoferritin bind	ClpP mod
1	-4.4%	-24.4%
2	u	-1.5%
3	x	-1.7%
4	x	x
5	x	x
6	-6.7%	14.8%
7	u	133.7%
8	-10.7%	-7.6%
9	-17.8%	22.4µM*
10	-21.8%	-0.6%
11	-8.6%	-1.1%
12	0.3%	1.1%

# The results go on:
entry	SMILES	rTrxR1 inhibitor	TrxR1 substrate	miR-21 reporter
13	CC(=O)Nc1ccc(Cl)c(C(N)=O)c1	9.9%	6.2%	1.6%
14	NC(=O)c1cc(N2C(=O)C=CC2=O)ccc1Cl	1µM*	7.0%	19.4%
15	COc1ccc2nc(NC(=O)c3nc(S(=O)(=O)Cc4ccccc4)ncc3Cl)sc2c1	-6.9%	-4.0%	u
16	Cc1cccc(CS(=O)(=O)c2ncc(Cl)c(C(=O)Nc3nc4ccc(F)cc4s3)n2)c1	3.16µM*	5.4%	u
17	O=C(Nc1nc2ccc(F)cc2s1)c1nc(S(=O)(=O)Cc2ccccc2)ncc1Cl	3.55µM*	1.4%	u
18	CN(Cc1ccc(F)cc1)S(=O)(=O)c1nnc(NC(=O)c2ccc(F)cc2)s1	26.9%	7.7%	12.2%
19	COc1ccc(CCNC(=O)c2ccc(Cn3c(=O)c4ccccc4n(Cc4cccc(F)c4)c3=O)cc2)cc1OC	23.7%	11.3%	-0.4%
20	O=C1N=C(N2CCOCC2)S/C1=C/c1ccc(-c2ccc(F)cc2)o1	-2.9%	-1.5%	-18.0%
21	O=C1S/C(=C/c2ccc(N3CCOCC3)o2)C(=O)N1Cc1ccc(F)cc1	8.91µM*	-4.3%	-2.7%
22	O=C1S/C(=C\c2ccc(N3CCOCC3)o2)C(=O)N1Cc1ccc(F)cc1	2.51µM*	-11.0%[57.1 µM]	0.0%
23	O=C1/C(=C/c2ccc(N3CCOCC3)o2)SC(=Nc2ccccc2)N1CCc1c[nH]c2ccccc12	10µM*	-6.3%	u
24	CC(C)OC(=O)CN1C(=O)S/C(=C/c2ccc(N3CCCCC3)o2)C1=O	u	-1.2%	4.1%

entry	Apoferritin bind	ClpP mod
13	3.5%	-0.8%
14	-12.0%	-1.7%
15	-22.9%	-0.1%
16	u	2.2%
17	u	0.8%
18	-11.5%	-12.7%
19	-1.7%	35.5µM*
20	-11.9%	x
21	-10.3%	-1.9%
22	-12.9%	-1.6%
23	u	1.3%
24	u	-10.6%

# Additional results follow:
entry	SMILES	rTrxR1 inhibitor	TrxR1 substrate	miR-21 reporter
25	O=C1NC(=S)S/C1=C/c1ccc(N2CCOCC2)o1	12.6µM*	-14.7%	-17.8%
26	CC(C)c1ccc(NC(=O)C2Cc3ccccc3N2C(=O)c2ccccc2)cc1 (stereo not drawn)	8.2%[57.1 µM]	0.6%[57.1 µM]	3.8%
27	O=C(Cn1cc(SCc2ccccc2F)c2ccccc21)N1CCCCCC1	15.8%	0.2%	0.2%
28	CC(=O)N1CCCC1c1nc2ccccc2n1Cc1c(F)cccc1Cl (stereo not drawn)	13.3%	-2.6%	-7.6%
29	O=C(Nc1cccc(Cl)c1)c1ccc2nc(CCc3ccccc3)oc2c1	21.4%[57.1 µM]	-0.3%[57.1 µM]	-14.3%
30	COc1ccc(C(=O)/C=C/c2cn(CC(O)CN3CCCCCC3)c3ccccc23)cc1OC (stereo not drawn)	39.8µM*	-8.3%	13.6%
31	COc1ccc(C(=O)/C=C/c2cn(CC(O)CN3CCN(C)CC3)c3ccccc23)cc1OC (stereo not drawn)	15.2%	-4.4%[57.1 µM]	13.4%
32	CCOC(=O)c1n[nH]n2c1nc(=O)c1ccccc12	30.2%	136.6%	-5.2%
33	Cc1ccc(S(=O)(=O)c2n[nH]n3c2nc(=O)c2ccccc23)cc1	56.4%	66.7%	-2.5%
34	Nc1c(Cl)cc(Cl)cc1C(=O)OCC(=O)NC1CC1	74.2%	267.4%	-10.4%
35	CC(C)(C)c1nn2cnnc2n(/N=C/c2ccc(O)cc2)c1=O	4.0%	-2.3%	-1.7%
36	CN1CCN(C(c2ccc(Br)cc2)c2cc(Cl)c3cccnc3c2O)CC1 (stereo not drawn)	8.91µM*	3.5%	u

entry	Apoferritin bind	ClpP mod
25	-0.6%	-1.2%
26	-17.4%	0.3%
27	89.2%	0.8%
28	-3.2%	0.5%
29	-9.3%	u
30	53.8%	-4.2%
31	5.3%	x
32	-0.6%	x
33	-5.1%	15.8µM*
34	120.2%	8.91µM*
35	-12.7%	7.08µM*
36	-18.8%	x

# (further entries)
entry	SMILES	rTrxR1 inhibitor	TrxR1 substrate	miR-21 reporter
37	CN1CCN(C(c2cccnc2)c2ccc3cccnc3c2O)CC1 (stereo not drawn)	5.01µM*	7.7%	9.3%
38	O=C(NCc1cccc(F)c1)c1ccc(CN2CC(=O)N3CCCCC3C2=O)cc1 (stereo not drawn)	6.1%	-3.9%	2.1%
39	CCOc1ccc(NS(=O)(=O)c2c(C)nc3sc(C)c(C)n3c2=O)cc1	-6.1%	-6.6%	-1.1%
40	COc1ccc(C(CC(=O)Nc2cccc(C)c2C)N2Cc3ccccc3C2=O)cc1 (stereo not drawn)	3.1%	-12.7%	8.4%
41	Cc1ccc(SCC(c2ccccc2)N2CCN(C)CCC2=O)cc1 (stereo not drawn)	u	-3.8%	x
42	Cc1cc(C)cc(C(=O)N2CC(=O)Nc3ccc(C)cc3C2c2ccccc2)c1 (stereo not drawn)	-7.8%	-2.6%	18.5%
43	CCOC(=O)c1c(C2COc3ccccc3O2)csc1NC(=O)c1ccccc1 (stereo not drawn)	125.4%	206.8%	0.4%
44	CCOC(=O)c1c(C2COc3ccccc3O2)csc1N (stereo not drawn)	19.2%	-0.7%	-11.2%
45	CCOC(=O)c1c(NC(=O)C2COc3ccccc3O2)sc2c1CCN(Cc1ccccc1)C2 (stereo not drawn)	3.7%	-2.0%	11.2%
46	Cc1ccc(NC(=O)c2ccc(CNS(=O)(=O)c3ccc4c(c3)C(C)(C)C(=O)N4C)cc2)cc1F	13.5%	6.2%	u

entry	Apoferritin bind	ClpP mod
37	u	-1.0%
38	-11.3%	-4.2%
39	u	-1.6%
40	-8.8%	-0.6%
41	-3.5%	x
42	-7.5%	1.4%
43	-4.3%	14.1µM*
44	u	-1.1%
45	10.9%	25.1µM*
46	-10.2%	-1.3%

# 4 records drawn at random from those above, as already listed:
entry	SMILES	rTrxR1 inhibitor	TrxR1 substrate	miR-21 reporter
40	COc1ccc(C(CC(=O)Nc2cccc(C)c2C)N2Cc3ccccc3C2=O)cc1 (stereo not drawn)	3.1%	-12.7%	8.4%
41	Cc1ccc(SCC(c2ccccc2)N2CCN(C)CCC2=O)cc1 (stereo not drawn)	u	-3.8%	x
43	CCOC(=O)c1c(C2COc3ccccc3O2)csc1NC(=O)c1ccccc1 (stereo not drawn)	125.4%	206.8%	0.4%
39	CCOc1ccc(NS(=O)(=O)c2c(C)nc3sc(C)c(C)n3c2=O)cc1	-6.1%	-6.6%	-1.1%

entry	Apoferritin bind	ClpP mod
40	-8.8%	-0.6%
41	-3.5%	x
43	-4.3%	14.1µM*
39	u	-1.6%
